The record followed here is patent US11337964B2, “Isoindoline derivative, pharmaceutical composition and use thereof” (Kangpu Biopharmaceuticals, Ltd., priority 2017, dated 2022).

The chains behind the UniProt entries cited, without tags or fusion partners. Residues count along the entry.
UniProt P27815, 1-647 isoform P27815-4: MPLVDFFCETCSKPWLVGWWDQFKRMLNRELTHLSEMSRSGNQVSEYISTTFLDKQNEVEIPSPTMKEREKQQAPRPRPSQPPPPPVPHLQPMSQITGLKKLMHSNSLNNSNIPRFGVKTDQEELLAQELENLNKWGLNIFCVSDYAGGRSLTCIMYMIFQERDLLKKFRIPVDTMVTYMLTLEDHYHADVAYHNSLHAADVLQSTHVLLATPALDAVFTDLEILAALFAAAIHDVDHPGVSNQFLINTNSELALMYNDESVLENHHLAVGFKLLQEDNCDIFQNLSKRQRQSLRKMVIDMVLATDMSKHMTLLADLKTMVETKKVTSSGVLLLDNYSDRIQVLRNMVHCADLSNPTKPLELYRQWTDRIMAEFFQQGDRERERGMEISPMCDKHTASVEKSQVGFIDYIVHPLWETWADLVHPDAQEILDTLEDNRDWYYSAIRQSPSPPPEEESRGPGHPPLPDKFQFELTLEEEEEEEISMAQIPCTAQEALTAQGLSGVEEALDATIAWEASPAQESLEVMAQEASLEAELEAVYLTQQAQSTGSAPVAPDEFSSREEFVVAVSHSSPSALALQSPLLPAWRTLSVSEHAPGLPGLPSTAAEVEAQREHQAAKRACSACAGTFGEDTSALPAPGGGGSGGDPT

By IC50 is commonly meant the concentration at which inhibition is half-maximal. A high value points to weaker potency in that assay.

The assay concerns the target T1, PDE4A1A (Homo sapiens, UniProt P27815).
T1 construct: purchased BPS 60040
The assay can be described thus: PDE4 activity inhibition assay, PDE4A1A. It is filed as biochemical. As to conditions: FAM-cAMP substrate, 30 minutes at room temperature. The procedure: The IC50 value of the inhibitory effect of the compound on PDE4A1A, PDE4B1 and PDE4D3 was tested.
Positive compound: Trequinsin (Sigma, Cat. No. T2057).
Equipment: Wallac Victor Multi-label counter (Perkin Elmer).
I. Preparing 1× reaction liquid and termination liquid;
II. PDE enzymatic reaction; • 1) The PDE was dissolved in 1× reaction solution to form 2× enzyme solution. • 2) FAM-cAMP was dissolved in 1× reaction solution to form 2× substrate solution. • 3) Echo 550 was used to transfer the corresponding volume of the compound in DMSO solution to the reaction plate. • 4) 2× enzyme solution was added into the corresponding well of the reaction plate and incubated with the compound solution at room temperature for 15 minutes. • 5) 2× substrate solution was added into the corresponding well of the reaction plate to initiate the reaction. • 6) Reaction plate was incubated at room temperature for 30 minutes and terminated by adding termination liquid, then incubated at room temperature for 60 minutes.
The inhibition rate was calculated by Excel; IC50 was calculated by GraphPad Prism.

`CCOc1cc([C@@H](CS(C)(=O)=O)N2C(=O)c3cccc(NC(C)=O)c3C2=O)ccc1OC` [Reference compound 2, reference compound] displayed a concentration for half-maximal inhibition (IC50) of 9.85 nM. To `CCOc1cc(C(CS(C)(=O)=O)N2C(=O)c3cccc(NC(C)=O)c3C2=O)ccc1OC` (centres unmarked) [Reference compound 1, reference compound] belongs 22 nM.
